According to paper PMC11271386, “Factors affecting protein recovery during Hsp40 affinity profiling” (Analytical and Bioanalytical Chemistry, 2024):

What was measured:
^FlagDNAJB1^WT (human) = ^FlagDNAJB1^WT (human) (UniProt P25685); assay: affinity purification with mass spectrometry; TMT-AP-MS comparing ^FlagDNAJB1 WT vs. H32Q, in the absence and presence of DSP crosslinking of the cells; RIPA lysis and washes, M2 anti-Flag beads; two 10 cm plates per condition; three biological replicates
^FlagDNAJB1^WT = target: T1, ^FlagDNAJB1^WT (human, UniProt P25685 1-340); assay: as above; settings: partners not purified
T1 construct: DNAJB1, human Class B Hsp40; amplified from cDNA derived from HEK293T cells and inserted into pFlag.CMV2; source: HEK293T, transfected (calcium phosphate), in lysate; not shown: Flag, N-terminal, kept

Molecule: BCKDK (from UniProt O14874 31-412) (natural protein; other documents disagree on this pair)
- fold change of recovery with DNAJB1^WT against DNAJB1^H32Q, +DSP (^FlagDNAJB1^WT (human)): 2.3 fold
- fold change of recovery with DNAJB1^WT against DNAJB1^H32Q, −DSP (^FlagDNAJB1^WT (human)): 5.1 fold

B1: TTLL12 (natural protein, human (endogenous in HEK293T), UniProt Q14166 1-644, looked up)
chain: MEAERGPERRPAERSSPGQTPEEGAQALAEFAALHGPALRASGVPERYWGRLLHKLEHEVFDAGEVFGIMQVEEVEEEEDEAAREVRKQQPNPGNELCYKVIVTRESGLQAAHPNSIFLIDHAWTCRVEHARQQLQQVPGLLHRMANLMGIEFHGELPSTEAVALVLEEMWKFNQTYQLAHGTAEEKMPVWYIMDEFGSRIQHADVPSFATAPFFYMPQQVAYTLLWPLRDLDTGEEVTRDFAYGETDPLIRKCMLLPWAPTDMLDLSSCTPEPPAEHYQAILEENKEKLPLDINPVVHPHGHIFKVYTDVQQVASSLTHPRFTLTQSEADADILFNFSHFKDYRKLSQERPGVLLNQFPCENLLTVKDCLASIARRAGGPEGPPWLPRTFNLRTELPQFVSYFQQRERWGEDNHWICKPWNLARSLDTHVTKSLHSIIRHRESTPKVVSKYIESPVLFLREDVGKVKFDIRYIVLLRSVRPLRLFVYDVFWLRFSNRAFALNDLDDYEKHFTVMNYDPDVVLKQVHCEEFIPEFEKQYPEFPWTDVQAEIFRAFTELFQVACAKPPPLGLCDYPSSRAMYAVDLMLKWDNGPDGRRVMQPQILEVNFNPDCERACRYHPTFFNDVFSTLFLDQPGGCHVTCLV
- fold change of recovery with DNAJB1^WT against DNAJB1^H32Q, +DSP (^FlagDNAJB1^WT): 2.6 ± 1.3 fold
- fold change of recovery with DNAJB1^WT against DNAJB1^H32Q, −DSP (^FlagDNAJB1^WT): 3.3 ± 2.2 fold
